System: male Zucker Diabetic Fatty (ZDF) rats
Conditions: daily i.p.; rosiglitazone 6 mg/kg/day

body mass at the end of the 6 week study: over 550 grams
Compound: CN(CCOc1ccc(CC2SC(=O)NC2=O)cc1)c1ccccn1 (stereo not shown) [Rosiglitazone]

— patent US20100297020A1, “PHOSPHORYLATED AND PHOSPHONATED PYRONE ANALOGS FOR THERAPEUTIC TREATMENT” (Limerick Biopharma, Inc., priority 2008, published 2010)
